Only a part is listed here, and it is no random draw. Active and inactive are the calls of the source.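 Rule for the calls: active = mean inhibition across replicates of 30% or more, whatever share of single replicates reach that level; inconclusive = mean inhibition below 30% while every single replicate reaches 30%; inactive = the rest.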
Target: Protein disulfide-isomerase (Homo sapiens) (UniProt P07237)
Assay: inhibitors of human PDI, primary screen, biochemical, turbidity, single point, plate reader (AID 588391);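 note: absorbance from insulin aggregation driven by PDI reduction with DTT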
Conditions: PDI insulin aggregation turbidity, A650, 90 min; at 10 µM; stronger effect = higher value

The chains behind the UniProt entries cited, without tags or fusion partners.
UniProt P07237, whole entry: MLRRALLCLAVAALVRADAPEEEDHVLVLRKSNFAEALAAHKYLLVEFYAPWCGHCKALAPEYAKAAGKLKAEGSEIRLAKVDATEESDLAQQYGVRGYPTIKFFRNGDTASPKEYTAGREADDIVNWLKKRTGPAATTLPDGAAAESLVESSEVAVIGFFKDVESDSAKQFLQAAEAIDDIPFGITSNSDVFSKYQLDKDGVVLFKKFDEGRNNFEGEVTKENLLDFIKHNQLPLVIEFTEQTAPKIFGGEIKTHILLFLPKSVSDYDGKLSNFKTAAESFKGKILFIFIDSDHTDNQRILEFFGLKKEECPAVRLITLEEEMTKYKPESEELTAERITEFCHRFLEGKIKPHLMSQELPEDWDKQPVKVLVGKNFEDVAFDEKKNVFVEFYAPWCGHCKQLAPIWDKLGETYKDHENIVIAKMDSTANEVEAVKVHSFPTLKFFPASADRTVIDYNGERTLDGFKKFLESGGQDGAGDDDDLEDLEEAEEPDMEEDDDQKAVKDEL

| Compound | inhibition |
| --- | --- |
| CCN1CCC(Nc2ccc(Cl)cc2)CC1 | inactive: 3.47% |
| N#CC1(Nc2ccccc2)CCN(CCc2ccccc2)CC1 | inactive: -7.13% |
| O=C(NCC1(N2CCCCC2)CCCCC1)c1cccc([N+](=O)[O-])c1 | inactive: 12.9% |
| CSc1ccc(C(=O)NCC2(N3CCOCC3)CCCCC2)cc1 | inactive: 16.2% |
| O=C(NCC1(N2CCCCC2)CCCCC1)c1ccc(OC(F)F)cc1 | inactive: -3.32% |
| O=C(NCC1(N2CCOCC2)CCCCC1)c1cc(=O)[nH]c2ccccc12 | inactive: 2.44% |
| COc1cc(C(=O)NCC2(N3CCCCC3)CCCCC2)ccc1OC(F)F | inactive: -2.17% |
| COc1ccc(NC2CCN(C(=O)OC(C)(C)C)CC2)cc1 | inactive: 5.3% |
| CC(C)c1ccc(C(=O)NCC2(N3CCOCC3)CCCCC2)cc1 | inactive: 2.24% |
| CN1CCN(CCOC(=O)C(O)(c2ccccc2)c2ccccc2)CC1 | inactive: 14.8% |
| O=C(NCC1(N2CCCCC2)CCCCC1)c1cccc(C(F)(F)F)c1 | inactive: 3.89% |
| COc1cc(OC)c(C(=O)NCC2(N(C)C)CCCCC2)cc1OC | inactive: 1.71% |
| O=C(NCC1(N2CCOCC2)CCCCC1)c1cc(F)c(F)cc1Cl | inactive: -2.47% |
| CC(C)c1ccc(NC2CCN(C(=O)OC(C)(C)C)CC2)cc1 | inactive: 1.92% |
| COc1ccc(CN(CCCl)CCCl)cc1Cl | inactive: 5.68% |
| CN(C)c1cccc(C(=O)NCC2(N3CCCCC3)CCCCC2)c1 | inactive: 1.3% |
| Cc1ccc(C(=O)NCC2(N(C)C)CCCCC2)o1 | inactive: -0.327% |
| CCCOc1ccc(C(=O)NCC2(N(C)C)CCCCC2)cc1OC | inactive: -0.213% |
| CN1CCC(Nc2cccc(F)c2)CC1 | inactive: 11.2% |
| O=C(NCC1(N2CCCCC2)CCCCC1)c1cncc(Br)c1 | inactive: -2.25% |
| CSc1ccccc1C(=O)NCC1(N2CCCCC2)CCCCC1 | inactive: -4.27% |
| Cc1cccc(NC2(C#N)CCN(Cc3ccccc3)CC2)c1 | inactive: 3.46% |
| COc1ccc(C(=O)NCC2(N3CCCCC3)CCCCC2)cc1 | inactive: -1.65% |
| COc1ccc(C(=O)NCC2(N3CCCCC3)CCCCC2)c(OC)c1OC | inactive: -7.89% |
| CC(C)(C)OC(=O)N1CCC(N(C(=O)c2ccccc2)c2ccc(F)cc2)CC1 | inactive: -1.9% |

| Compound | inhibition |
| --- | --- |
| O=C(NCC1(N2CCCCC2)CCCCC1)c1ccc(=O)[nH]c1 | inactive: 3.58% |
| O=C(NCC1(N2CCCCC2)CCCCC1)c1cccs1 | inactive: 0.718% |
| O=C(NCC1(N2CCCCC2)CCCCC1)c1ccc(Cl)s1 | inactive: -11.2% |
| N#CC1(Nc2ccccc2)CCN(Cc2ccccc2)CC1 | inactive: 0.0395% |
| O=C(OC1CN2CCC1CC2)C1c2ccccc2Oc2ccccc21 (centres undefined) | inactive: 3.1% |
| COc1ccc(Cl)cc1C(=O)NCC1(N2CCOCC2)CCCCC1 | inactive: 7.55% |
| CCOC(=O)N1CCC(Nc2ccc(OC)cc2)CC1 | inactive: 6.53% |
| O=C(NCC1(N2CCCCC2)CCCCC1)c1ccc(Cl)nc1 | inactive: 8.5% |
| Cc1cc(C)cc(N(C(=O)c2ccccc2)C2CCN(C(=O)OC(C)(C)C)CC2)c1 | inactive: -1.23% |
| O=C(NCC1(N2CCOCC2)CCCCC1)c1cc2ccccc2o1 | inactive: -1.57% |
| CCCCOc1ccc(C(=O)NCC2(N3CCOCC3)CCCCC2)cc1 | inactive: -0.809% |
| O=P1(N(CCCl)CCCl)SCCCS1 | inactive: 6.61% |
| O=C(NCC1(N2CCCCC2)CCCCC1)c1ccc(F)cc1 | inactive: 2.2% |
| CCOC(=O)N1CCC(Nc2ccc(F)cc2)CC1 | inactive: 2.12% |
| COc1ccc(NC2CCN(CCc3ccccc3)CC2)c(OC)c1 | inactive: -2.93% |
| CCOc1ccc(C)cc1CN(CCCl)CCCl | inactive: 1.48% |
| CCOC(=O)N1CCC(Nc2cccc(C)c2)CC1 | inactive: 1.03% |
| COc1cc(C(=O)NCC2(N(C)C)CCCCC2)ccc1OC(F)F | inactive: -1.24% |
| Cc1ccc(C(=O)NCC2(N3CCCCC3)CCCCC2)o1 | inactive: 2.18% |
| Fc1ccccc1NC1CCN(Cc2ccccc2)CC1 | inactive: 0.488% |
| Cc1ccc(NC2(C#N)CCN(Cc3ccccc3)CC2)cc1 | inactive: -3.91% |
| CC(=O)N(c1ccccc1)C1CCNCC1 | inactive: 12.7% |
| COc1cc(OC)cc(C(=O)NCC2(N3CCCCC3)CCCCC2)c1 | inactive: 2.96% |
| O=C(NCC1(N2CCCCC2)CCCCC1)c1ccco1 | inactive: -10.2% |
| CN(C)c1ccc(C(=O)NCC2(N3CCCCC3)CCCCC2)cc1 | inactive: 6.64% |

| Compound | inhibition |
| --- | --- |
| Cn1c(=O)[nH]cc(N(CCCl)CCCl)c1=O | inactive: 2.13% |
| Cc1ccccc1NC1(C#N)CCN(Cc2ccccc2)CC1 | inactive: 1.62% |
| CCN1CCC(Nc2cccc(F)c2)CC1 | inactive: -3.74% |
| CC(C)(C)OC(=O)N1CCC(Nc2ccccc2)CC1 | inactive: 2.61% |
| O=C(O)C1(Nc2ccccc2)CCN(Cc2ccccc2)CC1 | inactive: -7.56% |
| CCCOc1ccc(C(=O)NCC2(N(C)C)CCCCC2)cc1 | inactive: 7.2% |
| CCOc1ncccc1C(=O)NCC1(N2CCOCC2)CCCCC1 | inactive: -7.93% |
| CN1CCC(Nc2ccc(F)c(Cl)c2)CC1 | inactive: 7.93% |
| CN1CCC(Nc2ccc(Cl)cc2)CC1 | inactive: 2.02% |
| COc1cccc(C(=O)N(c2cc(C)cc(C)c2)C2CCN(C(=O)OC(C)(C)C)CC2)c1 | inactive: -1.81% |
| COc1cc(OC)cc(C(=O)NCC2(N3CCOCC3)CCCCC2)c1 | inactive: 0.275% |
| CCC(CO)(C(=O)OC1CN2CCC1CC2)c1ccccc1 (centres undefined) | inactive: -4.55% |
| COc1ccc(C(=O)NCC2(N3CCOCC3)CCCCC2)cc1OC | inactive: 0.111% |
| COc1cc(C(=O)NCC2(N3CCOCC3)CCCCC2)cc(OC)c1C | inactive: -4.05% |
| O=C(NCC1(N2CCOCC2)CCCCC1)c1cc(Br)ccc1Cl | inactive: 4.75% |
| O=C(OC1CN2CCC1CC2)C1c2ccccc2C=Cc2ccccc21 (centres undefined) | inactive: 4.57% |
| CCOC(=O)N1CCC(Nc2ccc(C)cc2)CC1 | inactive: 12.2% |
| N/C(=N\O)c1c(N)no[n+]1[O-] | inactive: -3.69% |
| N#Cc1ccc(C(=O)NCC2(N3CCCCC3)CCCCC2)cc1 | inactive: -0.155% |
| CC(C)(C)OC(=O)N1CCC(N(C(=O)c2ccccc2)c2ccc(Cl)cc2)CC1 | inactive: -4.09% |
| CN(C)C1(CNC(=O)c2cccc(C#N)c2)CCCCC1 | inactive: -21.3% |
| c1ccc(CN2CCC(Nc3ccccc3)CC2)cc1 | inactive: 10.1% |
| CCCN1CCC(Nc2cc(OC)cc(OC)c2)CC1 | inactive: -0.677% |
| Cc1cc(N(CCCl)CCCl)ccc1C=O | inactive: 3.17% |

Source: PubChem BioAssay AID588391 (Broad Institute, 2011)
